pIC50: −log10 of the molar value.
Target: T1, Aldehyde dehydrogenase, mitochondrial (Homo sapiens, UniProt P05091)
T1 sequence (P05091 whole entry): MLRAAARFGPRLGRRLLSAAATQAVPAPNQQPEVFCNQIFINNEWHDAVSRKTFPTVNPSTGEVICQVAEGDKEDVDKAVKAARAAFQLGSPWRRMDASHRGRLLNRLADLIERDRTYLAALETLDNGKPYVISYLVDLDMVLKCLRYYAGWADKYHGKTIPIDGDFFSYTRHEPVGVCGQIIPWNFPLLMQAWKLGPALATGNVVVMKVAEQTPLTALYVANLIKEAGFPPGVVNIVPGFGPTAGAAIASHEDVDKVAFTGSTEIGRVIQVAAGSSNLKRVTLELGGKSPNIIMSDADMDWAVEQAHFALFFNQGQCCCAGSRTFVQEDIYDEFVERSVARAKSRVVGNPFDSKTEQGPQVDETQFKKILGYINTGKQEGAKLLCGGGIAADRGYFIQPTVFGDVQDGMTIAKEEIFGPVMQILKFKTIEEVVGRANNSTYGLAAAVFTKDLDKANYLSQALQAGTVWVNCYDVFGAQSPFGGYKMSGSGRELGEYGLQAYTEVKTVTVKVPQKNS

## Cc1oc2cc3oc(=O)c(C)c(C)c3cc2c1C
  pIC50: 6.72

— ChEMBL document CHEMBL4007427, “Inhibition of the Aldehyde Dehydrogenase 1/2 Family by Psoralen and Coumarin Derivatives” (J Med Chem, 2017)
